# Data published in patent US20040127467A1, “Synthesis of pancratistatin prodrugs” (priority 2003, published 2004).
substance,measurement,value
Manganese pancratistatin 7-O-phosphate [2i],water solubility (in words),poor water solubility
